From article PMC11953467

B1: CXCR7-SmBiT [not stated] / LgBiT-βarr1 [not stated] (parent)
chain 1: MGDKGTRVFKKASPNGKLTVYLGKRDFVDHIDLVDPVDGVVLVDPEYLKERRVYVTLTCAFRYGREDLDVLGLTFRKDLFVANVQSFPPAPEDKKPLTRLQERLIKKLGEHAYPFTFEIPPNLPCSVTLQPGPEDTGKACGVDYEVKAFCAENLEEKIHKRNSVRLVIRKVQYAPERPGPQPTAETTRQFLMSDKPLHLEASLDKEIYYHGEPISVNVHVTNNTNKTVKKIKISVRQYADICLFNTAQYKCPVAMEEADDTVAPSSTFCKVYTLTPFLANNREKRGLALDGKLKHEDTNLASSTLLREGANREILGIIVSYKVKVKLVVSRGGLLGDLASSDVAVELPFTLMHPKPKEEPPHREVPENETPVDTNLIELDTNDDDIVFEDFARQRLKGMKDDKEEEEDGTGSPQLNNR
chain 2: MDLHLFDYSEPGNFSDISWPCNSSDCIVVDTVMCPNMPNKSVLLYTLSFIYIFIFVIGMIANSVVVWVNIQAKTTGYDTHCYILNLAIADLWVVLTIPVWVVSLVQHNQWPMGELTCKVTHLIFSINLFGSIFFLTCMSVDRYLSITYFTNTPSSRKKMVRRVVCILVWLLAFCVSLPDTYYLKTVTSASNNETYCRSFYPEHSIKEWLIGMELVSVVLGFAVPFSIIAVFYFLLARAISASSDQEKHSSRKIIFSYVVVFLVCWLPYHVAVLLDIFSILHYIPFTCRLEHALFTALHVTQCLSLVHCCVNPVLYSFINRNYRYELMKAFIFKYSAKTGLTKLIDASRVSETEYSALEQSTK

Variants of: B1
Test: βarr1 recruitment assay (CXCR7-SmBiT + LgBiT-βarr1), agonist dose-response
Details: with LgBiT-βarr1, value read at the highest dose, log M about -5 (10 µM), read off a plot

response (fold over unstimulated) (stimulation with VUF10661) | response (fold over unstimulated) (stimulation with VUF11418) | Variant
1.5 | 7.2 | chain 2 L128A
1.2 | 2.3 | chain 2 Y268A
